Measured values as given in patent publication US20240050395A1 (priority 2020, published 2024).

System: CBE-treated SH-SY5Y cells
Test: Viability of CBE-treated cells by MTT (Gaucher disease model)
Details: 50 nM Baf-A1 with 100 μM CBE + 25 nM, 50 nM and 75 nM PAO

## Bafilomycin A1
  effect on the protective effect of PAO (cell viability, MTT): decreased the protective effect of PAO
